In patent US11541027B2, “Use of dianhydrogalactitol and analogs or derivatives thereof in combination with platinum-containing antineoplastic agents to treat non-small-cell carcinoma of the lung and brain metastases” (DelMar Pharmaceuticals, Inc., priority 2014, dated 2023):

How the values were obtained:
[1] = tested on: HCT-116 p53−/− versus p53+/+; assay: Resistance factors in engineered HCT-116 tumor models, p53 knockout; type: cell-based, human; conditions: loss of p53 (p53−/− vs p53+/+)
From the text: (§1) FIG. 13 is a graph showing the cytotoxicity of dianhydrogalactitol (“DAG”) and the platinum drugs cisplatin (“cis-Pt”) and oxaliplatin (“Oxali-Pt”) against engineered HCT-116 tumor models in vitro. To better explore dependency of activity on p53 status, the molecularly engineered colorectal HCT-116 models were used. These isogenic models were molecularly engineered to knockout p53 (p53^−/−) or p21 (p21^−/−). The p53^+/+ or p21^+/+ represent the corresponding control. The p53^−/− cell lines are described in J. Boyer et al., “Characterization of p53 Wild-Type and Null Isogenic Colorectal Cell Lines Resistant to 5-Fluorouracil, Oxaliplatin, and Irinotecan,” Clin. Cancer Res. 10: 2158-2167 (2004), incorporated herein by this reference. The p21^−/− cell lines are described in Z. Han et al., “Role of p21 in Apoptosis and Senescence of Human Colon Cancer Cells Treated with Camptothecin,” J. Biol. Chem. 277: 17154-17160 (2002), incorporated herein by this reference. These IC50 values were used to determine resistance of knockout models relative to corresponding controls.
(§2) FIG. 14 is a graph showing the resistance factors for dianhydrogalactitol (“DAG”) and the platinum drugs cisplatin (“cis-Pt”) and oxaliplatin (“Oxali-Pt”) in engineered HCT-116 tumor models in vitro.

[2] = tested on: HCT-116 p21−/− versus p21+/+; assay: Resistance factors in engineered HCT-116 tumor models, p21 knockout; type: cell-based, human; conditions: loss of p21 (p21−/− vs p21+/+)
From the text: as §1, §2

## dianhydrogalactitol
[1]; listed as DAG
  resistance of knockout model relative to corresponding control: lower
[1]; listed as VAL-083
  resistance of knockout model relative to corresponding control: < 2 fold
[2]
  resistance of knockout model relative to corresponding control: non-existent
